## Binding of CDR-mutated scFvs to a peptide of the spike HR2 region

Antigen: PDVDLGDISGINAS, a 14-residue peptide of the SARS-CoV-2 spike HR2 region.

Ab-91 is the parent antibody, in scFv form: VL, then three GGGGS repeats, then VH. The light chain is unchanged in all variants.
VL: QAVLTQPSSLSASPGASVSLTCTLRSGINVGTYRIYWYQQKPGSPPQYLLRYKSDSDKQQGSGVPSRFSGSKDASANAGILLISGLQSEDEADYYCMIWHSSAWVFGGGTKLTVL
VH: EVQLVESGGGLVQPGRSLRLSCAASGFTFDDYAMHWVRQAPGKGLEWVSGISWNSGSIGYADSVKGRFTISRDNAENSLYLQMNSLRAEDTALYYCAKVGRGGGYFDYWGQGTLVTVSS

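Phage display of a naive human antibody library on the peptide gave the parent. Library AAYL51 holds single substitutions and randomly drawn double and triple substitutions in the CDRs. AlphaSeq pools MATa yeast showing the antibodies with MATalpha yeast showing the peptide. The frequency of each diploid, read from paired DNA barcodes, reflects how well the two displayed proteins bind. A regression on co-assayed BCL2-family reference pairs converts the normalised counts of each replicate to an apparent Kd. Each pool was mated in three replicate cultures.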

Positions count from residue 1 of the parent VH; W53R puts R in place of W.
Values are log10 of the apparent Kd in nM; lower means stronger binding.
Replicates are averaged; those with no signal do not enter the mean.
"no signal" marks a missing value. The strain was present, yet no cells mated with the target were sequenced in any replicate, which points to weak or no binding.
Parent in this assay: reference entry 1.86, copy in this library 0.88.

changes	log10 Kd (nM), mean	seen in
W53R/S63P/R101E	3.70	3 of 3
H35I/N54A/S57L	3.53	1 of 3
K65Q/Y105A/D107Q	5.07	3 of 3
G26I/T28P/G59Q	3.65	1 of 3
T28S/D31A	1.54	3 of 3
Y32M/W53R/S57N	no signal	0 of 3
F29I/A33L/K65Q	4.92	1 of 3
G26F/S55K/F106C	no signal	0 of 3
D30T/I58G/V99I	2.94	3 of 3
G26M/T28A	no signal	0 of 3
A33V/W53P/K65R	3.84	1 of 3
Y60F/V99G/G103T	4.00	1 of 3
D31C/S57N/G104W	1.71	3 of 3
N54E/G100M	1.15	3 of 3
W53Y/V64M/G100L	4.78	1 of 3
D30S/N54Y/G56R	4.34	1 of 3
T28V/Y32M/D107V	no signal	0 of 3
S52H/G59T/A61T	no signal	0 of 3
H35G/V64P/F106Q	no signal	0 of 3
F29Y/D31Y/G100S	1.21	3 of 3
G59Y/K65S	4.42	1 of 3
A33Y/S57C	4.91	3 of 3
F29Y/D62V/G103M	no signal	0 of 3
T28L/V64R/G104A	no signal	0 of 3
H35F/K65W/G100T	no signal	0 of 3
D31S/W53I/V99D	no signal	0 of 3
G50Q/G103F/Y108T	no signal	0 of 3
G26M/Y32G/R101D	no signal	0 of 3
G26S/K65W/Y108C	no signal	0 of 3
D62S/K65R/V99E	4.88	1 of 3
M34Q/G56R	no signal	0 of 3
Y32P/A33I/Y60R	6.08	2 of 3
D31I/G50C/K65N	5.24	3 of 3
G56I/S63Q/F106Y	4.99	2 of 3
G50N/S55M/G59K	no signal	0 of 3
H35Q/S55R/D107V	4.64	2 of 3
S52K/S57T/A61V	2.41	1 of 3
T28E/A33V/S57I	5.03	2 of 3
A33H/S57M/R101Q	5.30	3 of 3
N54M/G103I/F106D	3.97	1 of 3

The remaining entries, values ahead:

log10 Kd (nM), mean	seen in	changes
no signal	0 of 3	K65Q/G100W/F106E
4.01	2 of 3	A33I/G59S/Y105R
3.95	2 of 3	G26S/F27I/G59K
3.87	1 of 3	G26P/F27T/D107T
5.51	1 of 3	S57E/K65H/G103A
1.75	3 of 3	T28A/G56W/F106Y
no signal	0 of 3	S55I/V64E/Y105W
1.06	3 of 3	T28D/W53Y/V64Y
no signal	0 of 3	F27V/G103F/D107S
5.05	1 of 3	G50A/I58T/G100H
4.59	2 of 3	G50I/Y108N
5.44	1 of 3	F27V/F29P/W53V
no signal	0 of 3	A33Q/V99S/G102W
no signal	0 of 3	I51S/S57G/D107N
4.78	2 of 3	A61Q/D62S/G103L
4.85	3 of 3	M34R/W53G/G104M
5.80	3 of 3	S52M/N54F/Y108S
no signal	0 of 3	F29V/D62A/G100D
4.65	1 of 3	G26R/D31K/I51Y
3.42	3 of 3	D30A/I58H/G102M
4.69	1 of 3	G50F/I58G/G104I
no signal	0 of 3	A33F/H35V/Y108W
no signal	0 of 3	S63F/G102Q/D107G
5.67	1 of 3	A33T/V64L/G102Y
3.45	1 of 3	M34E/H35L/D107H
5.18	2 of 3	G104P/F106V/Y108P
4.92	3 of 3	T28K/S63R/F106E
2.50	3 of 3	D31Y/A61I/D62A
no signal	0 of 3	Y60W/V64W/G103A
4.97	1 of 3	F29Q/S57N/Y105K
4.79	2 of 3	S52V/R101Q/G102W
4.50	1 of 3	G26D/F29R/S63G
3.17	3 of 3	D31V/D62A/F106I
4.22	1 of 3	H35C/S63W/G102L
no signal	0 of 3	T28Q/I51W/Y105H
4.34	1 of 3	M34L/W53E
no signal	0 of 3	G50A/S52T/D62K
no signal	0 of 3	S55H/G59T/S63V
5.20	1 of 3	S52H/G100V
no signal	0 of 3	S55I/S57K/Y105I

For reference, 5 entries of the list once more:

| changes | log10 Kd (nM), mean | seen in |
|---|---|---|
| S55H/G59T/S63V | no signal | 0 of 3 |
| T28L/V64R/G104A | no signal | 0 of 3 |
| Y32M/W53R/S57N | no signal | 0 of 3 |
| W53Y/V64M/G100L | 4.78 | 1 of 3 |
| D30S/N54Y/G56R | 4.34 | 1 of 3 |

Empty control strains, which show no peptide, gave a signal in 21% of pairings with library AAYL51; the median was 4.54 and 95% of these signals were weaker than 3.26. No background was subtracted.

The measurements come from Engelhart et al. 2022 (doi:10.1038/s41597-022-01779-4) through the FLAb antibody collection.